Sequences of proteins named here, by UniProt entry; tags and fusion partners are left off. Residues count along the entry.
UniProt P08581, 25-932 limits assumed: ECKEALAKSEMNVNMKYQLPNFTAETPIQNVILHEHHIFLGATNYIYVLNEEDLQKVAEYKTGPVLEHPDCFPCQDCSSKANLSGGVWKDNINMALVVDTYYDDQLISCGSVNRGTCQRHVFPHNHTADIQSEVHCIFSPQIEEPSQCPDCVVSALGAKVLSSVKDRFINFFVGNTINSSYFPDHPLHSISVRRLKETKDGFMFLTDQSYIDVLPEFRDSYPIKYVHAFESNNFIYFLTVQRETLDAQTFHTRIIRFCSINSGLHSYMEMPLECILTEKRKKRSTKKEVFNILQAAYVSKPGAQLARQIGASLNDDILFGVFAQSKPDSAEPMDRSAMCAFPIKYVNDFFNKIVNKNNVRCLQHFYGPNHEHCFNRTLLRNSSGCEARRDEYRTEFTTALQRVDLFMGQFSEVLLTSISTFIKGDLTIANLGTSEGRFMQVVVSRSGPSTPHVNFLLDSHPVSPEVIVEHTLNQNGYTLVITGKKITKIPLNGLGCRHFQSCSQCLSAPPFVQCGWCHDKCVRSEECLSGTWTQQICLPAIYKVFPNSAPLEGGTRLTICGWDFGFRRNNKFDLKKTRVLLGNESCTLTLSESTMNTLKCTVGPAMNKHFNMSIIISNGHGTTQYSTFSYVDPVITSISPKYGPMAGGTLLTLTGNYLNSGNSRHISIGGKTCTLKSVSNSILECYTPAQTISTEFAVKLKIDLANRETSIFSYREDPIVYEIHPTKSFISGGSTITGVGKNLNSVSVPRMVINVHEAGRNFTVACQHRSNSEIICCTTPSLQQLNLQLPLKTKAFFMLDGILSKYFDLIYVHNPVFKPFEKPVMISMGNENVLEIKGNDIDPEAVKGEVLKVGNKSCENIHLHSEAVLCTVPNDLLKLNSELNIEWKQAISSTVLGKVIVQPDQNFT

In patent EP4778941A1 (Jiangsu Hengrui Pharmaceuticals Co., Ltd., dated 2025):

Legend:
[1] = biological target: T1, His-tagged human HER3 antigen (human, UniProt P21860 20-643); assay: SPR, Biacore 8K, protein A chip; ADC captured, His-tagged antigen 6.25-400 nM as analyte; 1:1 Langmuir
T1 construct: Soluble antigen used as analyte in SPR; not shown: His tag

[2] = biological target: T2, His-tagged human MET antigen (human, UniProt P08581 25-932); assay: as above
T2 construct: Soluble antigen used as analyte in SPR; not shown: His tag

Kd [1]: 19 nM
Kd [2]: 14.1 nM
B1: Anti-HER3/MET antibody-drug conjugate ADC-1 (bispecific antibody)
heavy 1: not shown
light 1: DIQMTQSPSSVSASVGDRVTITCRASQGINTWLAWYQQKPGKAPKLLIYAASSLKSGVPSRFSGSGSGADFTLTISSLQPEDFATYYCQQANSFPLTFGGGTKVEIKGGGGSGIPPKIECLPIDISIDEGKVLTVASAFTGEPTPEVTWSTGGRKIHSQEQGRFHIENTDDSTTLTIKDVQKQDGGLYTLTLRNEFGSDSATVNIHIRSI
heavy 2: QVQLVQSGGGLVQPGRSLRLSCAASGFTFDDYAMHWVRQAPGKGLEWVSGISWNSGSIGYADSVKGRFTISRDNAKNSLYLQMNSLRAEDTALYYCAKEGLPGLDYWGQGTLVTVSSASTKGPSVFPLAPSSKSTSGGTAALGCLVKDYFPEPVTVSWNSGALTSGVHTFPAVLQSSGLYSLSSVVTVPSSSLGTQTYICNVNHKPSNTKVDKKVEPKSCDKTHTCPPCPAPELLGGPSVFLFPPKPKDTLMISRTPEVTCVVVDVSHEDPEVKFNWYVDGVEVHNAKTKPREEQYNSTYRVVSVLTVLHQDWLNGKEYKCKVSNKALPAPIEKTISKAKGQPREPQVCTLPPSREEMTKNQVSLSCAVKGFYPSDIAVEWESNGQPENNYKTTPPVLDSDGSFFLVSKLTVDKSRWQQGNVFSCSVMHEALHNHYTQKSLSLSPGK
light 2: DIQMTQSPSSLSASIGDRATITCRASQHVGTYLNWYQQKPGKTPKLLISGAANLQSGVPSRFSGSGSGTDFTLTISSLQPEDFATYYCQQSYNTPPFSFGQGTKVEIKRTVAAPSVFIFPPSDEQLKSGTASVVCLLNNFYPREAKVQWKVDNALQSGNSQESVTEQDSKDSTYSLSSTLTLSKADYEKHKVYACEVTHQGLSSPVTKSFNRGEC
modifications: compound 9-A on reduced cysteines, positions not given; denaturing MS main peak HC2+3drug; no drug by denaturing MS (main peak LC1); compound 9-A on a reduced cysteine, position not stated; denaturing MS main peak LC2+1drug; compound 9-A (exatecan derivative linker-drug) on reduced cysteines, positions not given; denaturing MS main peak HC1+2drug
notes: target DAR 6, found DAR 5.90
